From patent publication US20230255972A1, “PYRIMIDINE COMPOUND-CONTAINING COMBINATION TO BE USED IN TUMOR TREATMENT” (TAIHO PHARMACEUTICAL CO., LTD., priority 2020, published 2023) come the findings set out here.

Where two headings read alike, the source gives them in different places.

The subject of the data set is Human stomach cancer-derived tumor cells 4-1ST. Particulars: for BWC (%, Mean ± SE) / T/C (%) / TV (mm^3, mean ± SE): Day 15; for BWC (%, Mean ± SE) / T/C (%) / TV (mm^3, mean ± SE) / Number of Deaths: Days 1, 8, iv.

Consider “trastuzumab: Trastuzumab (Herceptin, Roche), anti-Her2 antibody [reference compound]”, for which, under “Trastuzumab 20 mg/kg/day”, the “BWC (%, Mean ± SE)” value is 10.82 ± 0.90%; the “T/C (%)” value is 79.4%; the “TV (mm^3, mean ± SE)” value came out at 1621.4 ± 273.5 mm^3; the “Number of Deaths” value is recorded as 0. Where the note is “Trastuzumab 40 mg/kg/day”, the “BWC (%, Mean ± SE)” value came out at 9.22 ± 1.00%; the “T/C (%)” value is 74.4%; the “TV (mm^3, mean ± SE)” value is listed as 1518.8 ± 204.2 mm^3; the “Number of Deaths” value came out at 0. The “TV on Day 15 versus control group (Dunnett's test)” value (trastuzumab iv Days 1 and 8 (except for the 20 mg/kg/day group), Example 11 po Days 1-14) is recorded as “significantly lower TV”.
